For assay [1], the target named is T1, mu-opioid receptor (MOR) (Rattus norvegicus, UniProt P33535). The experiment in a line: Radioligand binding, displacement of [3H]diprenorphine, C6-MOR membranes. The note with it: MOR over DOR.
Assay [2] concerns the target T1, mu-opioid receptor (MOR). The note with it: read-out: EC50 as MOR agonist; reported by McFadyen et al. 2000, compared to fentanyl; cited from earlier work.

Sequences of proteins named here, by UniProt entry; tags and fusion partners are left off.
UniProt P33535, whole entry: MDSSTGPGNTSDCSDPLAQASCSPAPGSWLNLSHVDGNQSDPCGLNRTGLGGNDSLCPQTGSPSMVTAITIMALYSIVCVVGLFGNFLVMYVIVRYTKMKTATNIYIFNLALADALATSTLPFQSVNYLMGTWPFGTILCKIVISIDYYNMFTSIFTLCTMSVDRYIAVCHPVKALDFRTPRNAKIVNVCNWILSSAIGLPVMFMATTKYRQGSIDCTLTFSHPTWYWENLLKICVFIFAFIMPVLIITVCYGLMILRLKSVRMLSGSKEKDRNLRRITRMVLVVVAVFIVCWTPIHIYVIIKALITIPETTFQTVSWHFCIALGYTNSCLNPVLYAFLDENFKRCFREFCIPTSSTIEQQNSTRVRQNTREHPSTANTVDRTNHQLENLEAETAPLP

On to `CC1(C)SCCSC[C@@H](NC(=O)[C@@H](N)Cc2ccc(O)cc2)C(=O)N[C@@H](Cc2ccccc2)C(=O)N[C@H]1C(N)=O`, for which the “MOR selectivity in binding to opioid receptors” value at mu-opioid receptor (MOR) [1] was determined as 100 fold. Further, at mu-opioid receptor (MOR) [2], the concentration for a half-maximal effect (EC50) was 2.93 nM.

The values above are taken from US9045526B2 (THE REGENTS OF THE UNIVERSITY OF MICHIGAN, priority 2011, dated 2015).
